Laboratory results from PubChem BioAssay (NCI).
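Five compound concentrations were applied to cells in 96-well plates for 48 hours; endpoints were derived by simple linear interpolation of the resulting dose-response curve. TGI: total growth inhibition.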

Assays:
Test in all cases: NCI-60 cell line screen, 48 h
[1] = test system: 786-0 renal
[2] = test system: A498 renal
[3] = test system: A549 NSCLC
[4] = test system: ACHN renal
[5] = test system: BT-549 breast
[6] = test system: CAKI-1 renal
[7] = test system: CCRF-CEM leukemia
[8] = test system: COLO 205 colon
[9] = test system: DU-145 prostate
[10] = test system: EKVX NSCLC
[11] = test system: HCC-2998 colon
[12] = test system: HCT-116 colon
[13] = test system: HCT-15 colon
[14] = test system: HL-60(TB) leukemia
[15] = test system: HOP-62 NSCLC
[16] = test system: HOP-92 NSCLC
[17] = test system: HS 578T breast
[18] = test system: HT29 colon
[19] = test system: IGROV1 ovarian
[20] = test system: K-562 leukemia
[21] = test system: KM12 colon
[22] = test system: LOX IMVI melanoma
[23] = test system: M14 melanoma
[24] = test system: MALME-3M melanoma
[25] = test system: MCF7 breast
[26] = test system: MDA-MB-231 breast
[27] = test system: MDA-MB-435
[28] = test system: MDA-N
[29] = test system: MOLT-4 leukemia
[30] = test system: NCI-H226 lung
[31] = test system: NCI-H23 lung
[32] = test system: NCI-H322M lung
[33] = test system: NCI-H460 lung
[34] = test system: NCI-H522 lung
[35] = test system: NCI/ADR-RES ovarian
[36] = test system: OVCAR-3 ovarian
[37] = test system: OVCAR-4 ovarian
[38] = test system: OVCAR-5 ovarian
[39] = test system: OVCAR-8 ovarian
[40] = test system: PC-3 prostate
[41] = test system: RPMI-8226 leukemia
[42] = test system: RXF 393 renal
[43] = test system: SF-268 CNS
[44] = test system: SF-295 CNS
[45] = test system: SF-539 CNS
[46] = test system: SK-MEL-2 melanoma
[47] = test system: SK-MEL-28 melanoma
[48] = test system: SK-MEL-5 melanoma
[49] = test system: SK-OV-3 ovarian
[50] = test system: SN12C renal
[51] = test system: SNB-19 CNS
[52] = test system: SNB-75 CNS
[53] = test system: SR leukemia
[54] = test system: SW-620 colon
[55] = test system: T-47D breast
[56] = test system: TK-10 renal
[57] = test system: U251 CNS
[58] = test system: UACC-257 melanoma
[59] = test system: UACC-62 melanoma
[60] = test system: UO-31 renal

Measured: TGI

CN(C)CCCOC(=O)C(O)(Cc1ccccc1)c1cccc2c1OC(C)(C)C2 (stereo not given)
31.5 µM: [48]
50.4 µM: [8]
38 µM: [11]
98.7 µM: [16]
48.8 µM: [24]
39.2 µM: [58]
42 µM: [53]
82 µM: [52]
81 µM: [20]
91.8 µM: [18]
33.6 µM: [23]
45.7 µM: [47]
> 100 µM: all other assays above
